Amino acid sequences for entries named in this document (tags omitted).
UniProt P08238, whole entry, looked up: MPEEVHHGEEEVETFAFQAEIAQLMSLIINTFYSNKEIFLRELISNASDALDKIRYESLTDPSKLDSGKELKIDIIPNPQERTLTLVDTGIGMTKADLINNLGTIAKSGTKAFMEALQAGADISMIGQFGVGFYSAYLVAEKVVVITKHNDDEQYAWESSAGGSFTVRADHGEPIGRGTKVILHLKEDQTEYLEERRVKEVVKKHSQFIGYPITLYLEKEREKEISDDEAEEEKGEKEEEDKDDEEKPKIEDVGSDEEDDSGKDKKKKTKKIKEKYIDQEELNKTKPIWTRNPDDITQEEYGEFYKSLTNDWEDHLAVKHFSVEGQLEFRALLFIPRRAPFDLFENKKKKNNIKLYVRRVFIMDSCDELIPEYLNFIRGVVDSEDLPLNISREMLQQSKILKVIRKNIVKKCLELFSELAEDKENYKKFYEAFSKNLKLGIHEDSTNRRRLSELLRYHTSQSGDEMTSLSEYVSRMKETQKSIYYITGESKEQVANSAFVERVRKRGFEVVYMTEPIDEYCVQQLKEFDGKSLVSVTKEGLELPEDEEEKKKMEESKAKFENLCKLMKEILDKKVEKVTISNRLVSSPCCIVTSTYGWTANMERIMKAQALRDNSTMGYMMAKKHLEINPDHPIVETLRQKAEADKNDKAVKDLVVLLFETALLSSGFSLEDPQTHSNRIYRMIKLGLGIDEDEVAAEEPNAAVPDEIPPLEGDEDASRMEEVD

In ChEMBL document CHEMBL4376883, “Discovery and Optimization of Small Molecules Targeting the Protein-Protein Interaction of Heat Shock Protein 90 (Hsp90) and Cell Division Cycle 37 as Orally Active Inhibitors for the Treatment of Colorectal Cancer” (J Med Chem, 2020):

Legend:
[1] = molecular target: T1, Heat shock protein HSP90 (Homo sapiens, UniProt P07900+P08238); assay: Binding affinity to recombinant full-length biotinylated-HSP90 N-terminal domain (9 to 236 residues) (unknown origin) expressed in Escherichia coli BL21 (DE3) assessed as association rate constant by biolayer interferometry
[2] = molecular target: T1, Heat shock protein HSP90; assay: Binding affinity to recombinant full-length biotinylated-HSP90 N-terminal domain (9 to 236 residues) (unknown origin) expressed in Escherichia coli BL21 (DE3) assessed as dissociation rate constant by biolayer interferometry

| SMILES | K [1] | K [2] |
| --- | --- | --- |
| Cc1cc(C)c(S(=O)(=O)N(CC(=O)NO)c2ccc(Nc3ccnc(N4CCNCC4)n3)cc2)c(C)c1 | 6350 M/s | 0.02 s⁻¹ |
| Cc1cc(C)c(S(=O)(=O)N(Cc2nnn[nH]2)c2ccc(Nc3ccnc(N4CCNCC4)n3)cc2)c(C)c1 | 7010 M/s | 0.04 s⁻¹ |
| COC(=O)CN(c1ccc(Nc2ccnc(N3CCNCC3)n2)cc1)S(=O)(=O)c1c(C)cc(C)cc1C | 20300 M/s | 0.04 s⁻¹ |
